Only a part is listed here, and it is no random draw. Active and inactive are the calls of the source. Calls follow the shape of the dose curve; as a rule, active = well fitted activation curve with a large enough effect; inconclusive = small, poorly fitted or top-dose-only effect; inactive = no such curve, though single readings can be large or run the other way.
test: qHTS of alpha-syn Inhibitors; conditions: Yeast expressing alpha-synuclein, BacTiter-Glo, 24 h; at 46.1 µM (top of the series) unless noted; also: % of control where 0% means no effect; nearly all actives have a fitted effect of over 65% in size
Summary of the method: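 Rescue of yeast growth: cells expressing toxic alpha-synuclein, induced in galactose at OD600 0.02, incubated with compound 24 h at 30 C. ATP luminescence quantified growth; inhibitors of toxicity appear as activators.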

| SMILES | growth rescue (activation) |
| --- | --- |
| CCCCOc1ccc(C(=O)NCC2(N3CCOCC3)CCCCC2)cc1 | inactive: 5.72% |
| CCCCn1nnnc1C(c1cc2ccccc2o1)N1CCC(n2c(=O)[nH]c3ccccc32)CC1 (configuration not stated) | inactive: 6.39% |
| O=P1(N(CCCl)CCCl)SCCCS1 | inactive: -1.18% |
| CCOc1ccc(C)cc1CN(CCCl)CCCl | inactive: -3.1% |
| O=C1CCN(Cc2ccccc2)CC1 | inactive: -3.13% |
| O=C(NCC1(N2CCOCC2)CCCCC1)c1ccc(Cl)cc1 | inactive: 2.39% |
| CC(C)(C)n1nnnc1C(c1ccccc1)N1CCC(n2c(=O)[nH]c3ccccc32)CC1 (configuration not stated) | inactive: -5.55% |
| O=c1[nH]c2ccccc2n1C1CCN(C(c2cccc3ccccc23)c2nnnn2C2CCCC2)CC1 (configuration not stated) | inactive: 9.09% |
| COc1cc(C(=O)NCC2(N(C)C)CCCCC2)ccc1OC(F)F | inactive: -13.9% |
| CCOC(=O)N1CCC(Nc2cccc(C)c2)CC1 | inactive: 6.76% |
| O=c1[nH]c2ccccc2n1C1CCN(C(c2ccccc2)c2nnnn2C2CCCCC2)CC1 (configuration not stated) | inactive: 2.67% |
| Cc1cccc(NC2(C#N)CCN(Cc3ccccc3)CC2)c1 | inactive: 8.85% |
| CSc1ccccc1C(=O)NCC1(N2CCCCC2)CCCCC1 | inactive: -5.23% |
| CCCCn1nnnc1C(c1cccs1)N1CCC(n2c(=O)[nH]c3ccccc32)CC1 (configuration not stated) | inactive: -0.324% |
| CCCCn1nnnc1C(CC)N1CCC(n2c(=O)[nH]c3ccccc32)CC1 (configuration not stated) | inactive: 3.97% |
| O=C(NCC1(N2CCCCC2)CCCCC1)c1cccs1 | inactive: -1.86% |

| SMILES | growth rescue (activation) |
| --- | --- |
| O=C(NCC1(N2CCCCC2)CCCCC1)c1ccc(=O)[nH]c1 | inactive: -0.468% |
| CCC(c1nnnn1C1CCCC1)N1CCC(n2c(=O)[nH]c3ccccc32)CC1 (configuration not stated) | inactive: -0.288% |
| COc1ccc(C(=O)NCC2(N3CCCCC3)CCCCC2)c(OC)c1OC | inactive: -7.81% |
| CC(C)(C)OC(=O)N1CCC(N(C(=O)c2ccccc2)c2ccc(F)cc2)CC1 | inactive: 9.57% |
| COc1ccc(C(=O)NCC2(N3CCCCC3)CCCCC2)cc1 | inactive: 0.711% |
| CCCCn1nnnc1C(c1ccc(OC)cc1)N1CCC(n2c(=O)[nH]c3ccccc32)CC1 (configuration not stated) | inactive: 0.606% |
| CCOC(=O)N1CCC(Nc2ccc(OC)cc2)CC1 | inactive: -4.2% |
| O=C1C(O)=C([N+](=O)[O-])C(=O)C(O)=C1[N+](=O)[O-] | inactive: 0.97% |
| COc1ccc(Cl)cc1C(=O)NCC1(N2CCOCC2)CCCCC1 | inactive: -0.293% |
| O=c1[nH]c2ccccc2n1C1CCN(C(c2cc3ccccc3o2)c2nnnn2C2CCCCC2)CC1 (configuration not stated) | inactive: 20.1% |
| O=C(OC1CN2CCC1CC2)C1c2ccccc2Oc2ccccc21 (configuration not stated) | inactive: 11.8% |
| O=C(NCC1(N2CCCCC2)CCCCC1)c1ccc(Cl)s1 | inactive: -5.66% |
| N#CC1(Nc2ccccc2)CCN(Cc2ccccc2)CC1 | inactive: -11.7% |
| O=C(NCC1(N2CCOCC2)CCCCC1)c1cc2ccccc2o1 | inactive: 6.49% |
| Cc1cc(C)cc(N(C(=O)c2ccccc2)C2CCN(C(=O)OC(C)(C)C)CC2)c1 | inactive: 1.57% |
| O=C(NCC1(N2CCCCC2)CCCCC1)c1ccc(Cl)nc1 | inactive: -6.87% |
